Target: Human full-length RanBP3 (residues 1–499; isoform B) (human)
Experiment: ITC; 530 µM RanQ69L:GTP titrated into 48 µM full-length RanBP3; 25°C; 300 mM NaCl, 5 mM MgCl2, 10 mM TRIS pH 7.4; single-site binding model; Kd,obs

Substance: RanQ69L:GTP (from UniProt P62826 1-216) (enzyme)
- stoichiometry N: 0.78

Source: paper PMC3045386
